Experimental findings from IntAct's records for PubMed 19270718 are described below.

B1: Transcription factor p65 (Homo sapiens), Q04206 (parent)
chain: MDELFPLIFPAEPAQASGPYVEIIEQPKQRGMRFRYKCEGRSAGSIPGERSTDTTKTHPTIKINGYTGPGTVRISLVTKDPPHRPHPHELVGKDCRDGFYEAELCPDRCIHSFQNLGIQCVKKRDLEQAISQRIQTNNNPFQVPIEEQRGDYDLNAVRLCFQVTVRDPSGRPLRLPPVLSHPIFDNRAPNTAELKICRVNRNSGSCLGGDEIFLLCDKVQKEDIEVYFTGPGWEARGSFSQADVHRQVAIVFRTPPYADPSLQAPVRVSMQLRRPSDRELSEPMEFQYLPDTDDRHRIEEKRKRTYETFKSIMKKSPFSGPTDPRPPPRRIAVPSRSSASVPKPAPQPYPFTSSLSTINYDEFPTMVFPSGQISQASALAPAPPQVLPQAPAPAPAPAMVSALAQAPAPVPVLAPGPPQAVAPPAPKPTQAGEGTLSEALLQLQFDDEDLGALLGNSTDPAVFTDLASVDNSEFQQLLNQGIPVAPHTTEPMLMEYPEAITRLVTGAQRPPDPAPAPLGAPGLPNGLLSGDEDFSSIADMDFSALLSQISS
B2: Transcription factor p65 (Homo sapiens), Q04206 (parent)
chain: B1 chain
partner: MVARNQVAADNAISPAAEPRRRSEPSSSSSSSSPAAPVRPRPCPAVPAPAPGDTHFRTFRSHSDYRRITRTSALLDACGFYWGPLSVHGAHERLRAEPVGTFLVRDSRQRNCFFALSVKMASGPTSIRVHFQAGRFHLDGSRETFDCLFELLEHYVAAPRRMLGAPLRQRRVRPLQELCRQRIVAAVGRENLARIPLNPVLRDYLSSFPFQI

The first assay covers variants of B1. The conditions noted are these: with cul2_mouse Cul2, Q9D4H8.
For MDELFPLIFPAEPAQASGPYVEIIEQPKQRGMRFRYKCEGRSAGSIPGERSTDTTKTHPTIKINGYTGPGTVRISLVTKDPPHRPHPHELVGKDCRDGFYEAELCPDRCIHSFQNLGIQCVKKRDLEQAISQRIQTNNNPFQVPIEEQRGDYDLNAVRLCFQVTVRDPSGRPLRLPPVLSHPIFDNRAPNTAELKICRVNRNSGSCLGGDEIFLLCDKVQKEDIEVYFTGPGWEARGSFSQADVHRQVAIVFRTPPYADPSLQAPVRVSMQLRRPSDRELSEPMEFQYLPDTDDRHRIEEKRKRTYETFKSIMKKSPFSGPTDPRPPPRRIAVPSRSSASVPKPAPQPYPFTSSLSTINYDEFPTMVFPSGQISQASALAPAPPQVLPQAPAPAPAPAMVSALAQAPAPVPVLAPGPPQAVAPPAPKPTQAGEGTLSEALLQLQFDDEDLGALLGNSTDPAVFTDLAAVDNSEFQQLLNQGIPVAPHTTEPMLMEYPEAITRLVTGAQRPPDPAPAPLGAPGLPNGLLSGDEDFSSIADMDFSALLSQISS [S468A], the “effect of a mutation on the interaction” value is recorded as “disrupting interaction”.

A further assay covers variants of B2. The conditions noted are these: with socs1_mouse Socs1, O35716.
With MDELFPLIFPAEPAQASGPYVEIIEQPKQRGMRFRYKCEGRSAGSIPGERSTDTTKTHPTIKINGYTGPGTVRISLVTKDPPHRPHPHELVGKDCRDGFYEAELCPDRCIHSFQNLGIQCVKKRDLEQAISQRIQTNNNPFQVPIEEQRGDYDLNAVRLCFQVTVRDPSGRPLRLPPVLSHPIFDNRAPNTAELKICRVNRNSGSCLGGDEIFLLCDKVQKEDIEVYFTGPGWEARGSFSQADVHRQVAIVFRTPPYADPSLQAPVRVSMQLRRPSDRELSEPMEFQYLPDTDDRHRIEEKRKRTYETFKSIMKKSPFSGPTDPRPPPRRIAVPSRSSASVPKPAPQPYPFTSSLSTINYDEFPTMVFPSGQISQASALAPAPPQVLPQAPAPAPAPAMVSALAQAPAPVPVLAPGPPQAVAPPAPKPTQAGEGTLSEALLQLQFDDEDLGALLGNSTDPAVFTDLAAVDNSEFQQLLNQGIPVAPHTTEPMLMEYPEAITRLVTGAQRPPDPAPAPLGAPGLPNGLLSGDEDFSSIADMDFSALLSQISS [S468A], the “effect of a mutation on the interaction” value was “decreasing interaction”.
